Results published in US9611262B2, “Substituted 2-azabicycles and their use as orexin receptor modulators” (JANSSEN PHARMACEUTICA NV, priority 2014, dated 2017).

Amino acid sequences for entries named in this document (tags omitted).
UniProt O43613, whole entry: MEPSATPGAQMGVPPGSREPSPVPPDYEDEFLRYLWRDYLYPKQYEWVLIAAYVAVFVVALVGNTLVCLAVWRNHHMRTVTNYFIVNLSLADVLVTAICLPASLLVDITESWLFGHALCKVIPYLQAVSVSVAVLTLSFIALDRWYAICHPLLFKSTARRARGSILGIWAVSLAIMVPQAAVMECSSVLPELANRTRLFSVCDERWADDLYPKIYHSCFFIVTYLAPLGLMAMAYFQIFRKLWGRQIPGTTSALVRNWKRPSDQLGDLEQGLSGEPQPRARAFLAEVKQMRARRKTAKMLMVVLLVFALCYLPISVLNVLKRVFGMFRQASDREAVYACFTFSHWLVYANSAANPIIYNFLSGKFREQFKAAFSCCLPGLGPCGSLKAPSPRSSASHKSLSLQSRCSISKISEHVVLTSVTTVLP

Key:
rat orexin 1 receptor = rat orexin 1 receptor (Rattus norvegicus, UniProt P56718); experiment: Rat orexin 1 receptor radioligand binding (competitive); conditions: HEK293 cells stably expressing rat orexin 1 receptor; 4 nM radioligand; averages of 2-20 runs; read-out: rOX1 Ki
Protocol: (§1) The in vitro affinity of the compounds of the invention for the rat/human orexin 1 and human orexin 2 receptors was determined by competitive radioligand binding using [^3H](1-(5-(2-fluoro-phenyl)-2-methyl-thiazol-4-yl)-1-((S)-2-(5-phenyl-(1,3,4)oxadiazol-2-ylmethyl)-pyrrolidin-1-yl)-methanone) (Langmead et al., 2004) and [^3H]EMPA (n-ethyl-2[96-methoxy-pyridin-3-yl)-(toluene-2-sulfonyl)-amino]-N-pyridin-3-ylmethyl acetamide), respectively (Langmead et al., 2004, British Journal of Pharmacology 141:340-346; Malherbe et al., 2004, British Journal of Pharmacology 156:1326-41).
(§2) Data are analyzed using pc-Sandy macro and graphed on Graphpad Prism 5. For analysis, each concentration point is averaged from triplicate values and the averaged values are plotted on Graphpad Prism. The IC50 was determined by applying the following equation (GraphPad Prism 5.0, San Diego) for one site competition where X=log (concentration) and Y=specific binding. Top denotes the total [^3H]— (1-(5-(2-fluoro-phenyl)-2-methyl-thiazol-4-yl)-1-((S)-2-(5-phenyl-(1,3,4)oxadiazol-2-ylmethyl)-pyrrolidin-1-yl)-methanone) binding, bottom denotes the nonspecific [^3H]— (1-(5-(2-fluoro-phenyl)-2-methyl-thiazol-4-yl)-1-((S)-2-(5-phenyl-(1,3,4)oxadiazol-2-ylmethyl)-pyrrolidin-1-yl)-methanone) binding. Graphpad Prism calculates Ki value from IC50 and the pre-determined Kd values for [^3H]— (1-(5-(2-fluoro-phenyl)-2-methyl-thiazol-4-yl)-1-((S)-2-(5-phenyl-(1,3,4)oxadiazol-2-ylmethyl)-pyrrolidin-1-yl)-methanone) and [^3H]-EMPA. The Ki for each compound is then uploaded into 3DX. Each run comprises individual compounds in triplicate. The data in Table 1 and Table 2 represent averages from between 2-20 runs
(§3) Rat and Human Orexin 1 Receptor Radioligand Binding Studies
(§4) Human Embryonic Kidney 293 cells (HEK293) stably expressing rat orexin 1 receptor (Genebank accession number NM_001525) or Chinese ovary cells (CHO) stably expressing human orexin 1 receptor (Genebank accession number […]) were grown to confluency in DMEM (Hyclone, cat # SH30022), 10% FBS, 1× Pen/Strep, 1× sodium pyruvate, 10 mM HEPES, 600 μg/mL G418 and DMEM/F12 (Gibco, Cat #11039), 10% FBS, 1× Pen/Strep, 600 μg/mL G418 media, respectively on 150 cm^2 tissue culture plates, washed with 5 mM EDTA in PBS (HyClone Dulbecco's Phosphate Buffered Saline 1× with Calcium and Magnesium, Cat # SH30264.01, hereafter referred to simply as PBS) and scraped into 50 ml tubes. After centrifugation (2K×G, 5 min at 4° C.), the supernatant was aspirated and the pellets frozen and stored at −80° C. Cells were resuspended in PBS in the presence of 1 tablet of protease inhibitor cocktail (Roche, Cat. #11836145001) per 50 mL. […] Competition binding experiments in 96 well polypropylene plates were performed using [^3H]— (1-(5-(2-fluoro-phenyl)-2-methyl-thiazol-4-yl)-1-((S)-2-(5-phenyl-(1,3,4)oxadiazol-2-ylmethyl)-pyrrolidin-1-yl)-methanone) (Moraveck Corporation, specific activity=35.3 Ci/mmol), diluted to a 10 nM concentration in PBS (4 nM final). Compounds were solubilized in 100% DMSO (Acros Organics, Cat. #61042-1000) and tested over a range of 7 concentrations (from 0.1 nM to 10 μM). The final concentration of DMSO in the reactions is equal to or less than 0.1%. Total and nonspecific binding was determined in the absence and presence of 10 μM almorexant. The total volume of each reaction is 200 μL (20 μL of diluted compounds, 80 μL of [^3H]— (1-(5-(2-fluoro-phenyl)-2-methyl-thiazol-4-yl)-1-((S)-2-(5-phenyl-(1,3,4)oxadiazol-2-ylmethyl)-pyrrolidin-1-yl)-methanone) diluted in PBS and 100 μL of the cell suspension). Reactions were run for 60 min at room temperature and terminated by filtration through GF/C filter plates (PerkinElmer, Cat. #6005174) presoaked in 0.3% polyethylenimine using the cell harvester (PerkinElmer Filtermate). The plates were washed 3 times by aspirating 30 ml PBS through the plates. Plates were dried in 55° C. oven for 60 min, scintillation fluid was added, and the radioactivity was counted on a Topcount (Packard). […]

human orexin 1 receptor = human orexin 1 receptor (Homo sapiens (Human), UniProt O43613); experiment: Human orexin 1 receptor radioligand binding (competitive); conditions: CHO cells stably expressing human orexin 1 receptor; 4 nM radioligand; averages of 2-20 runs; read-out: hOX1 Ki
Protocol: as §1, §2, §3, §4

Structure (SMILES)	pKi (rat orexin 1 receptor)	pKi (human orexin 1 receptor)
CCOc1ccc(C)nc1C(=O)N1C(C)C2CC(Oc3ccc(C(F)(F)F)cn3)C1C2 (racemic) [Example 13, (R/S)-(3-ethoxy-6-methylpyridin-2-yl)(3-methyl-6-((5-(trifluoromethyl)pyridin-2-yl)oxy)-2-azabicyclo[2.2.1]heptan-2-yl)methanone]	7.21	7.19
Cc1ccc(-n2nccn2)c(C(=O)N2C(CC(C)C)C3CC(Oc4ccc(C(F)(F)F)cn4)C2C3)n1 (racemic) [Example 210, (R/S)-[2-isobutyl-5-[[5-(trifluoromethyl)-2-pyridyl]oxy]-3-azabicyclo[2.2.1]heptan-3-yl]-[6-methyl-3-(triazol-2-yl)-2-pyridyl]methanone]	7.12	7.14
CC1C2CC(Nc3cnc(C(F)(F)F)cn3)C(C2)N1C(=O)c1ccccc1-n1nccn1 (single isomer, unassigned) [Example 68A, (2-(2H-1,2,3-triazol-2-yl)phenyl)((1R*,3S*,4R*,6S*)-3-methyl-6-((5-(trifluoromethyl)pyrazin-2-yl)amino)-2-azabicyclo[2.2.1]heptan-2-yl)methanone]	6.63	6.51
Cc1ccc(-n2nccn2)c(C(=O)N2C(C)C3CC(Oc4ccc(C(F)(F)F)cn4)C2C3)n1 (single isomer, unassigned) [Example 22, (R/S)-(6-methyl-3-(2H-1,2,3-triazol-2-yl)pyridin-2-yl)(3-methyl-6-((5-(trifluoromethyl)pyridin-2-yl)oxy)-2-azabicyclo[2.2.1]heptan-2-yl)methanone]	8.05	8.30
[2H]C1([2H])[C@H]2C[C@@H]([C@@H]1Oc1ccc(C(F)(F)F)cn1)N(C(=O)c1nc(C)ccc1-n1nccn1)[C@@H]2C [Example 198, [(1R,3R,4S,6R)-2,2-dideuterio-6-methyl-3-[[5-(trifluoromethyl)-2-pyridyl]oxy]-5-azabicyclo[2.2.1]heptan-5-yl]-[6-methyl-3-(triazol-2-yl)-2-pyridyl]methanone]	8.30	8.30
CC1C2CC(Oc3ccc(C(F)(F)F)cn3)C(C2)N1C(=O)c1cc(F)ccc1-c1ncccn1 (single isomer, unassigned) [Example 18B, (5-fluoro-2-(pyrimidin-2-yl)phenyl)((1S*,3R*,4R*,6R*)-3-methyl-6-((5-(trifluoromethyl)pyridin-2-yl)oxy)-2-azabicyclo[2.2.1]heptan-2-yl)methanone]	8.52	8.30
CC1C2CC(Oc3ccc(C(F)(F)F)cn3)C(C2)N1C(=O)c1ccc(F)cc1-c1ncccn1 (single isomer, unassigned) [Example 17B, (4-fluoro-2-(pyrimidin-2-yl)phenyl)((1S*,3R*,4R*,6R*)-3-methyl-6-((5-(trifluoromethyl)pyridin-2-yl)oxy)-2-azabicyclo[2.2.1]heptan-2-yl)methanone]	8.40	8.40
Cc1ccc(-n2nccn2)c(C(=O)N2C(C)C3CC(Nc4cnc(C(F)(F)F)cn4)C2C3)n1 (single isomer, unassigned) [Example 6B, (6-methyl-3-(2H-1,2,3-triazol-2-yl)pyridin-2-yl)((1S*,3S*,4S*,6R*)-3-methyl-6-((5-(trifluoromethyl)pyrazin-2-yl)amino)-2-azabicyclo[2.2.1]heptan-2-yl)methanone]	7.66	7.44
C[C@@H]1[C@H]2C[C@@H](Nc3ccc(C(F)(F)F)cn3)[C@H](C2)N1C(=O)c1cccc(F)c1-n1nccn1 (relative stereo) [Example 65, (3-fluoro-2-(2H-1,2,3-triazol-2-yl)phenyl)((1S*,3R*,4S*,6R*)-3-methyl-6-((5-(trifluoromethyl)pyridin-2-yl)amino)-2-azabicyclo[2.2.1]heptan-2-yl)methanone]	8.52	8.52
Cc1cnc(C(=O)N2[C@H](C)[C@H]3C[C@@H](Oc4ccc(C(F)(F)F)cn4)[C@@H]2C3)c(-n2nccn2)c1 (relative stereo) [Example 24, (5-methyl-3-(2H-1,2,3-triazol-2-yl)pyridin-2-yl)((1S*,3R*,4R*,6R*)-3-methyl-6-((5-(trifluoromethyl)pyridin-2-yl)oxy)-2-azabicyclo[2.2.1]heptan-2-yl)methanone]	8.22	7.82
Cc1ccc(-n2nccn2)c(C(=O)N2C(C)C3CC(Oc4ccc(C(F)(F)F)cn4)C2C3)n1 (single isomer, unassigned) [Example 3A, (6-methyl-3-(2H-1,2,3-triazol-2-yl)pyridin-2-yl)((1R*,3R*,4S*,6S*)-3-methyl-6-((5-(trifluoromethyl)pyridin-2-yl)oxy)-2-azabicyclo[2.2.1]heptan-2-yl)methanone]	7.96	7.85
Cc1ccc(C(=O)N2C(C)C3CC(Oc4ccc(C(F)(F)F)cn4)C2C3)c(-n2nccn2)n1 (racemic) [Example 10, (R/S)-(6-methyl-2-(2H-1,2,3-triazol-2-yl)pyridin-3-yl)(3-methyl-6-((5-(trifluoromethyl)pyridin-2-yl)oxy)-2-azabicyclo[2.2.1]heptan-2-yl)methanone]	7.85	7.64
C[C@@H]1[C@H]2C[C@@H](Oc3ccc(C(F)(F)F)cn3)[C@H](C2)N1C(=O)c1ccccc1-c1ncccn1 (relative stereo) [Example 33, ((1S*,3R*,4R*,6R*)-3-methyl-6-((5-(trifluoromethyl)pyridin-2-yl)oxy)-2-azabicyclo[2.2.1]heptan-2-yl)(2-(pyrimidin-2-yl)phenyl)methanone]	8.40	8.52
CC1C2CC(Oc3ccc(C(F)(F)F)cn3)C(C2)N1C(=O)c1ccccc1-c1ncccn1 (racemic) [Example 15, (R/S)-(3-methyl-6-((5-(trifluoromethyl)pyridin-2-yl)oxy)-2-azabicyclo[2.2.1]heptan-2-yl)(2-(pyrimidin-2-yl)phenyl)methanone]	7.92	7.96
C[C@@H]1[C@H]2C[C@@H](Oc3ccc(C(F)(F)F)cn3)[C@H](C2)N1C(=O)c1ccccc1-c1cccc(F)n1 [Example 173, [2-(6-fluoro-2-pyridyl)phenyl]-[(1R,2R,4S,5R)-2-methyl-5-[[5-(trifluoromethyl)-2-pyridyl]oxy]-3-azabicyclo[2.2.1]heptan-3-yl]methanone]	8.52	
[2H]C([2H])([2H])[C@]1([2H])[C@H]2C[C@@H](Oc3ccc(C(F)(F)F)cn3)[C@H](C2)N1C(=O)c1nc(C)ccc1-n1nccn1 [Example 165, [(1R,2R,4S,5R)-2-deuterio-2-(trideuteriomethyl)-5-[[5-(trifluoromethyl)-2-pyridyl]oxy]-3-azabicyclo[2.2.1]heptan-3-yl]-[6-methyl-3-(triazol-2-yl)-2-pyridyl]methanone]	8.10	
Cc1ccc(-n2nccn2)c(C(=O)N2C(C)C3CC(Nc4cnc(C(F)(F)F)cn4)C2C3)n1 (single isomer, unassigned) [Example 69A, (6-methyl-3-(2H-1,2,3-triazol-2-yl)pyridin-2-yl)((1R*,3S*,4R*,6S*)-3-methyl-6-((5-(trifluoromethyl)pyrazin-2-yl)amino)-2-azabicyclo[2.2.1]heptan-2-yl)methanone]	< 5.00	

pKi: −log10 of the molar value.
